Target: Epithelial Cell Kinase (ECK) (Homo sapiens, UniProt P29317)
Type: biochemical
Conditions: pH 7.2; nonradioactive format

By UniProt entry, the sequences of proteins in these tests, tags left out. Residues count along the entry.
UniProt P29317, 24-976, species assumed: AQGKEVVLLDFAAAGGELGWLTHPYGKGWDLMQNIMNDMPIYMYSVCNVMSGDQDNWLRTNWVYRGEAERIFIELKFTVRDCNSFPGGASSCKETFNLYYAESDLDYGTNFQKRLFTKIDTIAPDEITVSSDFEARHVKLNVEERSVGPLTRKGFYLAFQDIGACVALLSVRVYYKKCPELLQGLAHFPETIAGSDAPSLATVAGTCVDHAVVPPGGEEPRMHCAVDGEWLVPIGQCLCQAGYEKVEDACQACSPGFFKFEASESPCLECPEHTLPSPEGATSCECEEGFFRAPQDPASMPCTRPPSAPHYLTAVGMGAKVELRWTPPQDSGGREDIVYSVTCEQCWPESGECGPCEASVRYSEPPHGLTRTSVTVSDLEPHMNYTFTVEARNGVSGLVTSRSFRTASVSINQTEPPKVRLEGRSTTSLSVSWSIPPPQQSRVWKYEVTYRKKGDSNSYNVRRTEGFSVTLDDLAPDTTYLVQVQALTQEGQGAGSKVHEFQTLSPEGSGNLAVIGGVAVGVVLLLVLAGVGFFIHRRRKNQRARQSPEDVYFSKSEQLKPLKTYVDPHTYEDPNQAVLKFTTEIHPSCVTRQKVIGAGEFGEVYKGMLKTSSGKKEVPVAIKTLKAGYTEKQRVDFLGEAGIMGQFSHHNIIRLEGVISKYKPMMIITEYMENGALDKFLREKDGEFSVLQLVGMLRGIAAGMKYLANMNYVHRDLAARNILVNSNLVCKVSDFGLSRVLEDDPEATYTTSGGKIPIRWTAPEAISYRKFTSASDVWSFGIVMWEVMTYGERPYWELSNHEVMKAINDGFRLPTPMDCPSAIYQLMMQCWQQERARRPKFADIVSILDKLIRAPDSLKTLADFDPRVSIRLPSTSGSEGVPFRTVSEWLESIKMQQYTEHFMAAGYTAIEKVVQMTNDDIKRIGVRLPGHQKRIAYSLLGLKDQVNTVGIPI

Q: “4-(4-Chloro-2-fluoro-phenylamino)-5,8-dimethoxy-quinoline-3-carbonitrile [Example 238]” was tested. Which IC50 did it give?
A: > 30.3 µM
